Measured values published in PMC11988775, “Glycyl-tRNA Synthetase as a Target for Antiviral Drug Screening Against Influenza Virus” (International Journal of Molecular Sciences, 2025).

Tested on: influenza viruses (A/PuertoRico/8/34 (H1N1), A/Guangdong-MaonanSWL1536/2019 (H1N1) pdm09, A/Victoria/4897/2022(H1N1), B/Colorado/06/2017(BV))
Type: cell-based, Influenza A and B virus

SMILES: O=c1cc(-c2ccc(O)cc2)oc2cc(O)c(O)c(O)c12 [Scutellarein]
- antiviral Selectivity Index (SI): around 2
